According to ChEMBL document CHEMBL5370605, “Discovery of Novel Fedratinib-Based HDAC/JAK/BRD4 Triple Inhibitors with Remarkable Antitumor Activity against Triple Negative Breast Cancer” (J Med Chem, 2023):
Activity calls are given as the source filed them.

The chains behind the UniProt entries cited, without tags or fusion partners. Where a name states a change or a piece, a line headed by the entry shows the natural chain unless it says otherwise.
UniProt P17948, whole entry: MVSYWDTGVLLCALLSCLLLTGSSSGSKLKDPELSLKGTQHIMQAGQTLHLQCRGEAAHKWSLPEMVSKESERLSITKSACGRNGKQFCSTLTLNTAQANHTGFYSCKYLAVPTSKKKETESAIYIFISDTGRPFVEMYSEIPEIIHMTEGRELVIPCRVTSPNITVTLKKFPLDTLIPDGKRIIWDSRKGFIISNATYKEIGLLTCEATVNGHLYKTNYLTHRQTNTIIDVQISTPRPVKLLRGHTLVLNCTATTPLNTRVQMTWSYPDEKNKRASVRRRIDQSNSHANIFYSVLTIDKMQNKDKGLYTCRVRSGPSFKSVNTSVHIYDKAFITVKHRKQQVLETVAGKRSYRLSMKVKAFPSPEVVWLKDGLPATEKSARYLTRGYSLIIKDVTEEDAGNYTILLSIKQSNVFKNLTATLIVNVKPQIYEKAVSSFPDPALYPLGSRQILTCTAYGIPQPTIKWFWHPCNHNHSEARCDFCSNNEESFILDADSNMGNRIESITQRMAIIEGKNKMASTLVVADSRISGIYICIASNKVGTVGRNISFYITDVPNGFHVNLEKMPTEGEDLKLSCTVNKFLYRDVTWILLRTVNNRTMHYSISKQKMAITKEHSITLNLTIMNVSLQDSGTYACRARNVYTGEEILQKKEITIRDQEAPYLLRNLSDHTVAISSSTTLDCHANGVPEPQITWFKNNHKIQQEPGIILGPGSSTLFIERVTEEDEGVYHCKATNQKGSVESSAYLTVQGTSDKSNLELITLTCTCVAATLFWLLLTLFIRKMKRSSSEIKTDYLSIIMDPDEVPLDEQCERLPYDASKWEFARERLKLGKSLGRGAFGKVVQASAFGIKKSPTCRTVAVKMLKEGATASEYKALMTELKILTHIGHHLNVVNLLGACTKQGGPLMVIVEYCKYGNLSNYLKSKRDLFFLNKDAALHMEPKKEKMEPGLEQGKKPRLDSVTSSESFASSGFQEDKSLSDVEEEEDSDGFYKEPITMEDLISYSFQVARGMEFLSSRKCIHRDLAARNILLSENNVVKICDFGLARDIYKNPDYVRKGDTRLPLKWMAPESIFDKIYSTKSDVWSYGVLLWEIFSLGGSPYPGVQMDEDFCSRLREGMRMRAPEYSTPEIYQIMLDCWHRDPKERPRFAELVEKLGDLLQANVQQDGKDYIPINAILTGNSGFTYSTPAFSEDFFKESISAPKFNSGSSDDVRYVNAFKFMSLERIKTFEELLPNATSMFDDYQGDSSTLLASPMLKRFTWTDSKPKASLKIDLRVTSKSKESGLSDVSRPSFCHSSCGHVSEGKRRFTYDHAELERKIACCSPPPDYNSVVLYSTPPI
UniProt P10721, whole entry: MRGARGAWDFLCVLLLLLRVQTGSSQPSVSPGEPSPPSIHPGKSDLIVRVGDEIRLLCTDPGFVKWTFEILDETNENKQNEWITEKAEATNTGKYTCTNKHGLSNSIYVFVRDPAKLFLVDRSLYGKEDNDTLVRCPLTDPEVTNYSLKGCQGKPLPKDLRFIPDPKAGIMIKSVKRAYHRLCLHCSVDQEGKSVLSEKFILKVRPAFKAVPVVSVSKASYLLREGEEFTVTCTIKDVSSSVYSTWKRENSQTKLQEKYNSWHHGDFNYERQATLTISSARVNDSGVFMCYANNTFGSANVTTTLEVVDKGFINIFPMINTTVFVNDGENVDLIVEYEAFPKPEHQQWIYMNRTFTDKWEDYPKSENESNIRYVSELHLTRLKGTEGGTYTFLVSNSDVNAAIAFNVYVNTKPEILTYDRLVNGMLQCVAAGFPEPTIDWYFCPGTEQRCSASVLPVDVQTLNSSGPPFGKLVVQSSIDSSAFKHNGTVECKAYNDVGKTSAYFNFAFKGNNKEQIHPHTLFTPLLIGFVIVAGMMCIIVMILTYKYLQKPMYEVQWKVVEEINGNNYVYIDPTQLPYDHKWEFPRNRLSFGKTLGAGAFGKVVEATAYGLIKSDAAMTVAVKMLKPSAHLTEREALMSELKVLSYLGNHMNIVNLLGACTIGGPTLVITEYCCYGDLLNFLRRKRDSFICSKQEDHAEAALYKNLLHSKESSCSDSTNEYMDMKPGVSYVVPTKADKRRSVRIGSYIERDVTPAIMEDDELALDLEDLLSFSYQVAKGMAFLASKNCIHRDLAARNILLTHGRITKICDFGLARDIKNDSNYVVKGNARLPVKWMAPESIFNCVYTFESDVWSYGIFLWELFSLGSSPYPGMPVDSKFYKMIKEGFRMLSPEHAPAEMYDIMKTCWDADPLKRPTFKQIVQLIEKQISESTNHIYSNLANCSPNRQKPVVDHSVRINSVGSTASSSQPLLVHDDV
UniProt Q9UM73: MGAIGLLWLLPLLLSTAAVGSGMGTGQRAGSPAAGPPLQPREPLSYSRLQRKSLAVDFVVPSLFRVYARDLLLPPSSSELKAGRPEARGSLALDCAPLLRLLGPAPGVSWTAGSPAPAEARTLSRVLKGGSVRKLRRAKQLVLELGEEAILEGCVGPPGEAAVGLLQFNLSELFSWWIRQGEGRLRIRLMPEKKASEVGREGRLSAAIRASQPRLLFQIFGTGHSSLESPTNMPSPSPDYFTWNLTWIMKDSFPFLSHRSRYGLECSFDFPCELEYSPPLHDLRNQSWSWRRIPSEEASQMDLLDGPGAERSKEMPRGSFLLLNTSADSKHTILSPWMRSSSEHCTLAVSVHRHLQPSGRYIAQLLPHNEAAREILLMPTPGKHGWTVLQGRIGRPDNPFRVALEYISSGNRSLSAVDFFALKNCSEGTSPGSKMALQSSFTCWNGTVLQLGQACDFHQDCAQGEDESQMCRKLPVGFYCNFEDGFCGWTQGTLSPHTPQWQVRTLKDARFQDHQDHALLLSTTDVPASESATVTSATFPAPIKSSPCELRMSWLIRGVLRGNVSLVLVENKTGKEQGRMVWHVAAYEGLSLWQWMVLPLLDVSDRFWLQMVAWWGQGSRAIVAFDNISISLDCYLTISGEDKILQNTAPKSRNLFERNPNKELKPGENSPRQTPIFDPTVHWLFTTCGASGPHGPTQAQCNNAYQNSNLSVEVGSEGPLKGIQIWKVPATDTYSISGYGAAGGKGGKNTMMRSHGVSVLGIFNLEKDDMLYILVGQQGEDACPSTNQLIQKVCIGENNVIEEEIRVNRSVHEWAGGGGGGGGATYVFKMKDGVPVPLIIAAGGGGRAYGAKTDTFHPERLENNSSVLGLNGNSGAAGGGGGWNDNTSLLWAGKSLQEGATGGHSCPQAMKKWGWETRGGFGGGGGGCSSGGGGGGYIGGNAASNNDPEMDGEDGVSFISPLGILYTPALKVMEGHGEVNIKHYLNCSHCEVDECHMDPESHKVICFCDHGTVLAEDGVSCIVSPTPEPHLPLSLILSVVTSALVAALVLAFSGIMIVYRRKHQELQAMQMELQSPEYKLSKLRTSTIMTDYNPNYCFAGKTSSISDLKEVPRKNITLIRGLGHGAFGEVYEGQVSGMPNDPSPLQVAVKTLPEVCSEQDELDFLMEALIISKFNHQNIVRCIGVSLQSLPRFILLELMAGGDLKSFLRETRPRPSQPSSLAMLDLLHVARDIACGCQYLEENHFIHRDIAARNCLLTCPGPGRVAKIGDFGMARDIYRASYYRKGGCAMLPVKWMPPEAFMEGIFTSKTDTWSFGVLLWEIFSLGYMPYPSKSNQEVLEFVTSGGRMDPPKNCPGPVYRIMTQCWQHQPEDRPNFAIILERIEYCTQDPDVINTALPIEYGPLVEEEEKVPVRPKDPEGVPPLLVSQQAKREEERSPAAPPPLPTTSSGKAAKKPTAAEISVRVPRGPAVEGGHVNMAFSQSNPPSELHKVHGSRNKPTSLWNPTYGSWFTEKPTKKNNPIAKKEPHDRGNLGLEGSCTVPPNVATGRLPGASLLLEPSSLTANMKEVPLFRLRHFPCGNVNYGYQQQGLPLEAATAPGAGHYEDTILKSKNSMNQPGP
UniProt P11362, whole entry, looked up: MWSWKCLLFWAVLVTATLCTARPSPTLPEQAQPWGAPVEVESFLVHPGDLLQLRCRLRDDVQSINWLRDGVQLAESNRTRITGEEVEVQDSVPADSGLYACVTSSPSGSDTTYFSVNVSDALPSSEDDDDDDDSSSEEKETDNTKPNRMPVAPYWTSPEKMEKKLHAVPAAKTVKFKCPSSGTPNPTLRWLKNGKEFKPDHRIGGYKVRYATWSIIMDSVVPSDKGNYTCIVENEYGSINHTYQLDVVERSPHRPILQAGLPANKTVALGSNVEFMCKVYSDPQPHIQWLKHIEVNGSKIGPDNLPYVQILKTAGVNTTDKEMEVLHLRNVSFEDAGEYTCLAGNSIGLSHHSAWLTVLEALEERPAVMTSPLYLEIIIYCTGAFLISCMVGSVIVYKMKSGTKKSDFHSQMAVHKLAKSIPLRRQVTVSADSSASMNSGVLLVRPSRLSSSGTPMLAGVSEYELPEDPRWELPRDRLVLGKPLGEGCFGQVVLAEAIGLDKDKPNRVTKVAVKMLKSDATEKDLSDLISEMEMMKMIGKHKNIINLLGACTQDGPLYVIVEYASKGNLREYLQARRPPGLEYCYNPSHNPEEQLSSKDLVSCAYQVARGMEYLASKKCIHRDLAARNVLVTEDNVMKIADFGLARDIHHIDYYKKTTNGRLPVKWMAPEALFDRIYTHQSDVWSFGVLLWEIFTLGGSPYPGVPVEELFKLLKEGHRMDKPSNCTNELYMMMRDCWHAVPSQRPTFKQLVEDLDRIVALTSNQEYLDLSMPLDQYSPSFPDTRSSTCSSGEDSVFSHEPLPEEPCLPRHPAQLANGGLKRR
UniProt P35968, whole entry: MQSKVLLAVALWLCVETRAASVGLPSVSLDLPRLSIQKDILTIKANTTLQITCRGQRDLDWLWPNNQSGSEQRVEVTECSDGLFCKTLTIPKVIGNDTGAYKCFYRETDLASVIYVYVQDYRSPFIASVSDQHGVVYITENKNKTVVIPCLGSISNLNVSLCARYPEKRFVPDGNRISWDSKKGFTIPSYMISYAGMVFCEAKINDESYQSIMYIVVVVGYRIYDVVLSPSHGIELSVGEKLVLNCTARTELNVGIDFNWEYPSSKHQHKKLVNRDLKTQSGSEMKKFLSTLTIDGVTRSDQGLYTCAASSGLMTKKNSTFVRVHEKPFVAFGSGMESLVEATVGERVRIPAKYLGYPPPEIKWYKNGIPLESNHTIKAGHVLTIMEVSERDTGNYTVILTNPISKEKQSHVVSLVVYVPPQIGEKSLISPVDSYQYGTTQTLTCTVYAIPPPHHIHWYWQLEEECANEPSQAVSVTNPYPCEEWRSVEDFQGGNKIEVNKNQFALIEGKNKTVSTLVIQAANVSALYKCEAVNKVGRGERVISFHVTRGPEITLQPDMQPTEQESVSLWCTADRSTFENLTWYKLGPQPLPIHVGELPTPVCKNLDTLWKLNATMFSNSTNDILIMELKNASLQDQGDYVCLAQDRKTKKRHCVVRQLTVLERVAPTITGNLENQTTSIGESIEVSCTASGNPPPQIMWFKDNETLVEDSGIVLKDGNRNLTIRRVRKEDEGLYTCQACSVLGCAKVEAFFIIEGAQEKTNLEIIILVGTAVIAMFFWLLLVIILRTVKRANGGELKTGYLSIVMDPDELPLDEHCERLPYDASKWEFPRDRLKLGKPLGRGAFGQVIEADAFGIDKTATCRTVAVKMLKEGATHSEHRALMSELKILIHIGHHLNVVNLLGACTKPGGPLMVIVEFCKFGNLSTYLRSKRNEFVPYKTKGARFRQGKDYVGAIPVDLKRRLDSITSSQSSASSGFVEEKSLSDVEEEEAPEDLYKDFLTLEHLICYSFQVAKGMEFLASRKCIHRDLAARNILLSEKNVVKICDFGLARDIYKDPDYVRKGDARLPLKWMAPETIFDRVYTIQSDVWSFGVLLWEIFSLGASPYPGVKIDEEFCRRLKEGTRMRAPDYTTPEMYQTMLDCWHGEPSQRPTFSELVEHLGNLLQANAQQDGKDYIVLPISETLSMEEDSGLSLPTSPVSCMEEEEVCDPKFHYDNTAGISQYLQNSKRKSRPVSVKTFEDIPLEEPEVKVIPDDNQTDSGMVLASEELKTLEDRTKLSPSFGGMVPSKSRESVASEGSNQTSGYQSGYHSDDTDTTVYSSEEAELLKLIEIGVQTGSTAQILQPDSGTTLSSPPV

Columns and labels:
Details in all cases: dose 500.0 nM
[1] = molecular target: Platelet-derived growth factor receptor beta (Homo sapiens) (UniProt P09619)
[2] = molecular target: Vascular endothelial growth factor receptor 1 (Homo sapiens) (UniProt P17948)
[3] = molecular target: Platelet-derived growth factor receptor alpha (Homo sapiens) (UniProt P16234)
[4] = molecular target: Mast/stem cell growth factor receptor Kit (Homo sapiens) (UniProt P10721)
[5] = molecular target: ALK tyrosine kinase receptor (Homo sapiens) (UniProt Q9UM73)
[6] = molecular target: Fibroblast growth factor receptor 1 (Homo sapiens) (UniProt P11362)
[7] = molecular target: Vascular endothelial growth factor receptor 2 (Homo sapiens) (UniProt P35968)
[8] = molecular target: Proto-oncogene tyrosine-protein kinase Src (Homo sapiens) (UniProt P12931)
[9] = molecular target: Insulin receptor (Homo sapiens) (UniProt P06213)

Measured: inhibition

Cc1cnc(Nc2ccc(OCCN3CCCC3)cc2)nc1Nc1ccc(C(=O)NO)cc1
active: [1] | [2] | [3] | [4] | [5] | [6] | [7] | [8] | [9]
